In the assay the target is Sodium/potassium-transporting ATPase subunit alpha-1 (Canis lupus familiaris, UniProt P50997). The experiment in a line: Inhibition of Na+/K+ ATPase from dog kidney.

Usually IC50 stands for the point on the concentration scale where inhibition reaches its midpoint. Read a low IC50 as greater potency in that assay. `C[C@]12CC[C@H](O)C[C@H]1CC[C@@H]1[C@@H]2CC[C@]2(C)[C@@H](/C=C/C=N/NC3=NCCN3)CC[C@]12O` returned a half-maximal inhibitory concentration (IC50) of 2.5 µM.
